From BindingDB's records for doi:10.1002/cbic.200800304 (Research Institute, Hospital For Sick Children, 2008)
pIC50: −log10 of the molar value.

Target: T1, Lysosomal acid glucosylceramidase (Homo sapiens, UniProt P04062)
T1 sequence (P04062 whole entry): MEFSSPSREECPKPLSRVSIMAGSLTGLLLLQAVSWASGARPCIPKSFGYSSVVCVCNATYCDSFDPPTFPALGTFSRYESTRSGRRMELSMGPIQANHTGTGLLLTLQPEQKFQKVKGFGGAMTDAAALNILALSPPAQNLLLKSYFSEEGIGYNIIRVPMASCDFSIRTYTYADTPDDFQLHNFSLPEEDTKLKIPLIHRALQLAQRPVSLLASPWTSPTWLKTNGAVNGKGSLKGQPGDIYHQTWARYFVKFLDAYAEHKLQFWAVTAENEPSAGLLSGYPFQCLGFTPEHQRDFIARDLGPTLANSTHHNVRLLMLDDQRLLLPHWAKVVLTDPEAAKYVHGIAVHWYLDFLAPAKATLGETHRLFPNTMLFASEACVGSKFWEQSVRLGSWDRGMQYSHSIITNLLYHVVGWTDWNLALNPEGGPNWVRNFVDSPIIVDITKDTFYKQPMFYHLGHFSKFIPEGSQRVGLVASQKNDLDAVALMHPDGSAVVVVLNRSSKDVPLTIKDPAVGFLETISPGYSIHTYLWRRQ
Experiment: Inhibiton Assay
Details: pH 5.5; 37 °C
Protocol: Beta-glucocerebrosidase (GCase) activity was measured by release of 4-methylumbelliferyl fluorophore from MUClc.

Cc1ccccc1C(=O)Nc1ccncc1 [2-methyl-N-pyridin-4-yl-benzamide, 2a]
pIC50: 4.10
